The source of these data is PubChem BioAssay AID624467 (The Scripps Research Institute Molecular Screening Center, 2012).

Protein sequences, listed by entry. Tags and fused reporters are not part of them.
UniProt Q96RJ0, whole entry: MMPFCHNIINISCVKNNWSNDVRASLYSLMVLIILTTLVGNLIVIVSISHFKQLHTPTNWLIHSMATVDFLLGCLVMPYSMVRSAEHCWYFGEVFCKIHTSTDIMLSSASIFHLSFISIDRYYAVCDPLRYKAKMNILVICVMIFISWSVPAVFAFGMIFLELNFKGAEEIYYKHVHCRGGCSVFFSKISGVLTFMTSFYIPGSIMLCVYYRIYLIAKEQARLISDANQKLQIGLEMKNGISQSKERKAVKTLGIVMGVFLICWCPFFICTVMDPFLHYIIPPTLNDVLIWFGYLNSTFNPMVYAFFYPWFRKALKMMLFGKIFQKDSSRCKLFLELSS

Only a part is listed here, and it is no random draw. Activity calls are given as the source filed them.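 How the source made its calls: active means activation above the mean activation of all test compounds in the run plus 3 SD (cut at about 38% in these data); inactive means the rest.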

The test deals with Trace amine-associated receptor 1 (Homo sapiens) (UniProt Q96RJ0). The experiment in a line: activators of TAAR1 calcium mobilization – Fluo-8 calcium fluorescence, CHO RD-HGA16 cells, primary screen (AID 624467). Conditions: CHO RD-HGA16 TAAR1, Fluo-8 calcium fluorescence; at 3 µM; stronger effect = higher value; vehicle wells 0%, saturating PEA agonist 100%. In general terms: A change in cytosolic calcium serves as a functional read-out for many receptors and channels.
With `CCC(=O)N(c1ccccc1)C1(COC)CCN(CCc2cccs2)CC1`, the activation was inactive: -0.52%.
The value for `CCC(=O)N(c1ccccc1)C1(COC)CCN(CCn2nnn(CC)c2=O)CC1` was inactive: 2.39%.
